Test results reported in PMC3752001 (European journal of pharmacology, 2012).

The chains behind the UniProt entries cited, without tags or fusion partners. Residues count along the entry.
UniProt P17787, 26-502: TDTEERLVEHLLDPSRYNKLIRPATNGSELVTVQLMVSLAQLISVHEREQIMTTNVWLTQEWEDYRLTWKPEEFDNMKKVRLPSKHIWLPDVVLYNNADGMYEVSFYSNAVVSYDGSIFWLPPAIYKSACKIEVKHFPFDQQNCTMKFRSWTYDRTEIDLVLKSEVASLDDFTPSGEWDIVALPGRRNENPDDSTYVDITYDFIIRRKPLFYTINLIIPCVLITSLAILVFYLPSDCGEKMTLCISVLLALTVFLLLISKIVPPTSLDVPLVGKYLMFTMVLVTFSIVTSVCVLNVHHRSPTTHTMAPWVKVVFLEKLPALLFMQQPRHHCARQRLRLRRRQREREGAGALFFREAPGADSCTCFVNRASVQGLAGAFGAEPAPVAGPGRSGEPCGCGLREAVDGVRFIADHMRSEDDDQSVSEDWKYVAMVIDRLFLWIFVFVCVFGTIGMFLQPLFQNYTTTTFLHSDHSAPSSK
UniProt P43681, 27-627: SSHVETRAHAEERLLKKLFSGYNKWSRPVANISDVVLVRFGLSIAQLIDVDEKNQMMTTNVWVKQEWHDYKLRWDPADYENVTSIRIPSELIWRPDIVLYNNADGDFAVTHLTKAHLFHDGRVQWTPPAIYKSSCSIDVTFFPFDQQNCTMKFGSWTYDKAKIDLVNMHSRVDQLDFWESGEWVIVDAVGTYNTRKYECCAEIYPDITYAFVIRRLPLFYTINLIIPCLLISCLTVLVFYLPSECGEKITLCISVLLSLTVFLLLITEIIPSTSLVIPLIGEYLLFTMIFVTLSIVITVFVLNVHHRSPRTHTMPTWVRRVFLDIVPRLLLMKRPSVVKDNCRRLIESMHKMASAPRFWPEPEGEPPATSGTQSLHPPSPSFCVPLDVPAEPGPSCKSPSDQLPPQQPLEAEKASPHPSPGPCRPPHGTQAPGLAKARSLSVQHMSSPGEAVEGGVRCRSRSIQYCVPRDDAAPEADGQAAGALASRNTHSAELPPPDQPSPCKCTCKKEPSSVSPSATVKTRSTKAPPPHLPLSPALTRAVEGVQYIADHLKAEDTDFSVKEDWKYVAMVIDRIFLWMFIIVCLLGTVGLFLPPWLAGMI

Target: high sensitivity (HS) α4β2 nicotinic acetylcholine receptors (Homo sapiens, UniProt P17787+P43681)
Test: Two-electrode voltage clamp, high sensitivity
Assay type: cell-based
Conditions: Tris co-applied with 10 μM acetylcholine, phosphate ND-96

In the case of “Tris (hydroxymethyl)-aminomethane hydrochloride”, the IC50 is reported as 10 mM.
